Reference: patent US20090221532A1 (priority 2005, published 2009)
“And” between values parts separate entries of the source, which are not always exact repeats. Equal values may be shown once.

System: Patients undergoing elective colonoscopy
Assay: Example 1A: sedation for elective colonoscopy, mg/kg bolus dose-ranging with fentanyl pretreatment (Modified OAA/S)
Conditions: for Time to Fully Alert, Mean / Time to Fully Alert, Median / Time to Fully Recovered, Mean / Time to Fully Recovered, Median / Time to Ready for Discharge, Mean / Time to Ready for Discharge, Median: from withdrawal of colonoscope
[1] = initial bolus dose 620 to <777 mg
[2] = initial bolus dose 777 to <955 mg
[3] = initial bolus dose <777 mg (second quartile column)
[4] = total dose 762 to <891 mg, disodium salt

O-phosphonooxymethyl propofol disodium salt
Incidence (%) of patients who required supplemental doses to maintain sedation (620-<777 mg): 52.2% | Number of patients who needed supplemental doses to allow the start of procedure (620-<777 mg): 3 | Number of patients who required supplemental doses to maintain sedation (620-<777 mg): 12 | Percent of patients who needed supplemental doses to allow the start of procedure (620-<777 mg): 13.0% | Incidence (%) of patients who required supplemental doses to maintain sedation (777-<955): 30.4% | Number of patients who needed supplemental doses to allow the start of procedure (777-<955): 2 | Number of patients who required supplemental doses to maintain sedation (777-<955): 7 | Percent of patients who needed supplemental doses to allow the start of procedure (777-<955): 8.7% | Incidence (%) of patients who required supplemental doses to maintain sedation (<620 mg): 68.2% | Number of patients who needed supplemental doses to allow the start of procedure (<620 mg): 12 | Number of patients who required supplemental doses to maintain sedation (<620 mg): 15 | Percent of patients who needed supplemental doses to allow the start of procedure (<620 mg): 54.5% | Number of Patients administered a total of 1 dose (initial plus supplemental) (All Patients): 49 | Number of Patients administered a total of 2 doses (initial plus supplemental) (All Patients): 25 | Number of Patients administered a total of 3 doses (initial plus supplemental) (All Patients): 8 | Number of Patients administered a total of 4 doses (initial plus supplemental) (All Patients): 7 | Number of Patients administered a total of 5 doses (initial plus supplemental) (All Patients): 2 | Number of Patients requiring 0 supplemental doses to maintain sedation throughout the procedure (All Patients): 55 | Number of Patients requiring 1 dose to allow start of procedure (All Patients): 73 | Number of Patients requiring 1 supplemental dose to maintain sedation throughout the procedure (All Patients): 28 | Number of Patients requiring 2 doses to allow start of procedure (All Patients): 11 | Number of Patients requiring 2 supplemental doses to maintain sedation throughout the procedure (All Patients): 8 | Number of Patients requiring 3 doses to allow start of procedure (All Patients): 6 | Number of Patients requiring 4 doses to allow start of procedure (All Patients): 1 | Time to Achieve Sedation (first Modified OAA/S score ≦4), Mean (All Patients): 2.7 min | Time to Achieve Sedation (first Modified OAA/S score ≦4), Median (All Patients): 2.0 min | Time to Fully Alert, Mean (All Patients): 11.2 min | Time to Fully Alert, Median (All Patients): 11.0 min | Time to Fully Recovered, Mean (All Patients): 20.1 min | Time to Fully Recovered, Median (All Patients): 20.0 min | Time to Ready for Discharge, Mean (All Patients): 37.2 min | Time to Ready for Discharge, Median (All Patients): 37.0 min | Cumulative dose at which mean Modified OAA/S scores fell below 2 during the procedure (FIG. 2): > 777 mg | Time to induction of mild to moderate sedation levels (Modified OAA/S≧2 and ≦4) (FIG. 2, following administration of 620 mg to 955 mg): ≤ 2 min | Percent of time patients remained within Modified OAA/S levels of 2, 3, or 4 during colonoscopy (FIG. 4A, <620 mg up to procedure start): 83.6% | Percent of procedural time at MOAA/S levels more consistent with deep sedation, range (FIG. 4A, increasing bolus dose): 16.2% to 43.2% | Percent of time patients remained within Modified OAA/S levels of 2, 3, or 4 during colonoscopy, range (FIG. 4A, increasing initial bolus doses (higher quartiles)): 78.9% to 52.2% | Percent of patients for whom the initial bolus dose was sufficient to start the procedure (all patients): 80.2% | Percent of patients who required more than 1 supplemental dose to maintain sedation (all patients): 8.8% | Time of recovery from mild to moderate sedation to a Modified OAA/S of 5 after end of procedure (cumulative doses from 620 mg to 955 mg): 9 to 12 min | Percentage of patients who required only a single dose to initiate and maintain sedation (first quartile of initial bolus dose): 18.2% | Percentage of patients who required only a single dose to initiate and maintain sedation (fourth quartile of initial bolus dose): 87.0% | Number of Patients administered a total of 1 dose (initial plus supplemental) [1]: 10 | Number of Patients administered a total of 2 doses (initial plus supplemental) [1]: 10 | Number of Patients administered a total of 3 doses (initial plus supplemental) [1]: 1 | Number of Patients administered a total of 4 doses (initial plus supplemental) [1]: 2 | Number of Patients administered a total of 5 doses (initial plus supplemental) [1]: 0 | Number of Patients requiring 1 dose to allow start of procedure [1]: 20 | Number of Patients requiring 2 doses to allow start of procedure [1]: 1 | Number of Patients requiring 3 doses to allow start of procedure [1]: 2 | Number of Patients requiring 4 doses to allow start of procedure [1]: 0 | Time to Achieve Sedation (first Modified OAA/S score ≦4), Mean [1]: 2.7 min | Time to Achieve Sedation (first Modified OAA/S score ≦4), Median [1]: 2.5 min | Time to Fully Alert, Mean [1]: 9.3 min | Time to Fully Alert, Median [1]: 8.0 min | Time to Fully Recovered, Mean [1]: 17.1 min | Time to Fully Recovered, Median [1]: 17.0 min | Time to Ready for Discharge, Mean [1]: 35.8 min | Time to Ready for Discharge, Median [1]: 34.0 min | Number of Patients administered a total of 1 dose (initial plus supplemental) [2]: 15 | Number of Patients administered a total of 2 doses (initial plus supplemental) [2]: 6 | Number of Patients administered a total of 3 doses (initial plus supplemental) [2]: 1 | Number of Patients administered a total of 4 doses (initial plus supplemental) [2]: 1 | Number of Patients administered a total of 5 doses (initial plus supplemental) [2]: 0 | Number of Patients requiring 0 supplemental doses to maintain sedation throughout the procedure [2]: 16 | Number of Patients requiring 1 dose to allow start of procedure [2]: 21 | Number of Patients requiring 1 supplemental dose to maintain sedation throughout the procedure [2]: 5 | Number of Patients requiring 2 doses to allow start of procedure [2]: 2 | Number of Patients requiring 2 supplemental doses to maintain sedation throughout the procedure [2]: 2 | Number of Patients requiring 3 doses to allow start of procedure [2]: 0 | Number of Patients requiring 4 doses to allow start of procedure [2]: 0 | Time to Achieve Sedation (first Modified OAA/S score ≦4), Mean [2]: 2.0 min | Time to Achieve Sedation (first Modified OAA/S score ≦4), Median [2]: 2.0 min | Time to Fully Alert, Mean [2]: 12.0 min | Time to Fully Alert, Median [2]: 13.0 min | Time to Fully Recovered, Mean [2]: 21.7 min | Time to Fully Recovered, Median [2]: 21.0 min | Time to Ready for Discharge, Mean [2]: 39.6 min | Time to Ready for Discharge, Median [2]: 38.0 min | Number of Patients administered a total of 1 dose (initial plus supplemental) (initial bolus dose <620 mg): 4 | Number of Patients administered a total of 2 doses (initial plus supplemental) (initial bolus dose <620 mg): 6 | Number of Patients administered a total of 3 doses (initial plus supplemental) (initial bolus dose <620 mg): 6 | Number of Patients administered a total of 4 doses (initial plus supplemental) (initial bolus dose <620 mg): 4 | Number of Patients administered a total of 5 doses (initial plus supplemental) (initial bolus dose <620 mg): 2 | Number of Patients requiring 0 supplemental doses to maintain sedation throughout the procedure (initial bolus dose <620 mg): 7 | Number of Patients requiring 1 dose to allow start of procedure (initial bolus dose <620 mg): 10 | Number of Patients requiring 1 supplemental dose to maintain sedation throughout the procedure (initial bolus dose <620 mg): 10 | Number of Patients requiring 2 doses to allow start of procedure (initial bolus dose <620 mg): 7 | Number of Patients requiring 2 supplemental doses to maintain sedation throughout the procedure (initial bolus dose <620 mg): 5 | Number of Patients requiring 3 doses to allow start of procedure (initial bolus dose <620 mg): 4 | Number of Patients requiring 4 doses to allow start of procedure (initial bolus dose <620 mg): 1 | Time to Achieve Sedation (first Modified OAA/S score ≦4), Mean (initial bolus dose <620 mg): 4.3 min | Time to Achieve Sedation (first Modified OAA/S score ≦4), Median (initial bolus dose <620 mg): 3.0 min | Time to Fully Alert, Mean (initial bolus dose <620 mg): 11.5 min | Time to Fully Alert, Median (initial bolus dose <620 mg): 12.5 min | Time to Fully Recovered, Mean (initial bolus dose <620 mg): 18.4 min | Time to Fully Recovered, Median (initial bolus dose <620 mg): 20.5 min | Time to Ready for Discharge, Mean (initial bolus dose <620 mg): 32.9 min | Time to Ready for Discharge, Median (initial bolus dose <620 mg): 33.0 min | Number of Patients requiring 0 supplemental doses to maintain sedation throughout the procedure [3]: 11 | Number of Patients requiring 1 supplemental dose to maintain sedation throughout the procedure [3]: 11 | Number of Patients requiring 2 supplemental doses to maintain sedation throughout the procedure [3]: 1 | Number of Patients administered a total of 1 dose (initial plus supplemental) (initial bolus dose ≧955 mg): 20 | Number of Patients administered a total of 2 doses (initial plus supplemental) (initial bolus dose ≧955 mg): 3 | Number of Patients administered a total of 3 doses (initial plus supplemental) (initial bolus dose ≧955 mg): 0 | Number of Patients administered a total of 4 doses (initial plus supplemental) (initial bolus dose ≧955 mg): 0 | Number of Patients administered a total of 5 doses (initial plus supplemental) (initial bolus dose ≧955 mg): 0 | Number of Patients requiring 0 supplemental doses to maintain sedation throughout the procedure (initial bolus dose ≧955 mg): 21 | Number of Patients requiring 1 dose to allow start of procedure (initial bolus dose ≧955 mg): 22 | Number of Patients requiring 1 supplemental dose to maintain sedation throughout the procedure (initial bolus dose ≧955 mg): 2 | Number of Patients requiring 2 doses to allow start of procedure (initial bolus dose ≧955 mg): 1 | Number of Patients requiring 2 supplemental doses to maintain sedation throughout the procedure (initial bolus dose ≧955 mg): 0 | Number of Patients requiring 3 doses to allow start of procedure (initial bolus dose ≧955 mg): 0 | Number of Patients requiring 4 doses to allow start of procedure (initial bolus dose ≧955 mg): 0 | Time to Achieve Sedation (first Modified OAA/S score ≦4), Mean (initial bolus dose ≧955 mg): 1.8 min | Time to Achieve Sedation (first Modified OAA/S score ≦4), Median (initial bolus dose ≧955 mg): 2.0 min | Time to Fully Alert, Mean (initial bolus dose ≧955 mg): 12.0 min | Time to Fully Alert, Median (initial bolus dose ≧955 mg): 11.0 min | Time to Fully Recovered, Mean (initial bolus dose ≧955 mg): 22.9 min | Time to Fully Recovered, Median (initial bolus dose ≧955 mg): 20.5 min | Time to Ready for Discharge, Mean (initial bolus dose ≧955 mg): 40.2 min | Time to Ready for Discharge, Median (initial bolus dose ≧955 mg): 40.0 min | Patients who received alternative (rescue) medication and were considered treatment failures (of the 93 treated patients): two | Percentage of patients who required only a single dose to initiate and maintain sedation (second quartile of initial bolus dose): 43.5% | Percentage of patients who required only a single dose to initiate and maintain sedation (third quartile of initial bolus dose): 65.2% | Time to Achieve Sedation (first Modified OAA/S score ≦4), Mean (total dose 762 to <891 mg): 2.3 min | Time to Achieve Sedation (first Modified OAA/S score ≦4), Median (total dose 762 to <891 mg): 2.0 min | Time to Fully Alert, Mean (total dose 762 to <891 mg): 11.3 min | Time to Fully Alert, Median (total dose 762 to <891 mg): 11.0 min | Time to Fully Recovered, Mean (total dose 762 to <891 mg): 19.0 min | Time to Ready for Discharge, Mean (total dose 762 to <891 mg): 36.3 min | Time to Fully Recovered, Median [4]: 18 min and 18.0 min | Time to Ready for Discharge, Median [4]: 32 min and 32.0 min | Time to Achieve Sedation (first Modified OAA/S score ≦4), Mean (total dose 891 to <1041 mg): 3.8 min | Time to Achieve Sedation (first Modified OAA/S score ≦4), Median (total dose 891 to <1041 mg): 2.6 min | Time to Fully Alert, Mean (total dose 891 to <1041 mg): 11.6 min | Time to Fully Alert, Median (total dose 891 to <1041 mg): 11.0 min | Time to Fully Recovered, Mean (total dose 891 to <1041 mg): 20.5 min | Time to Fully Recovered, Median (total dose 891 to <1041 mg): 19.5 min | Time to Ready for Discharge, Mean (total dose 891 to <1041 mg): 38.5 min | Time to Ready for Discharge, Median (total dose 891 to <1041 mg): 38.0 min | Time to Achieve Sedation (first Modified OAA/S score ≦4), Mean (total dose <762 mg): 2.3 min | Time to Achieve Sedation (first Modified OAA/S score ≦4), Median (total dose <762 mg): 2.0 min | Time to Fully Alert, Mean (total dose <762 mg): 9.2 min | Time to Fully Alert, Median (total dose <762 mg): 8.0 min | Time to Fully Recovered, Mean (total dose <762 mg): 19.0 min | Time to Fully Recovered, Median (total dose <762 mg): 21.0 min | Time to Ready for Discharge, Mean (total dose <762 mg): 33.8 min | Time to Ready for Discharge, Median (total dose <762 mg): 35.0 min | Time to Achieve Sedation (first Modified OAA/S score ≦4), Mean (total dose ≧1041 mg): 2.3 min | Time to Achieve Sedation (first Modified OAA/S score ≦4), Median (total dose ≧1041 mg): 2.0 min | Time to Fully Alert, Mean (total dose ≧1041 mg): 12.6 min | Time to Fully Alert, Median (total dose ≧1041 mg): 12.0 min | Time to Fully Recovered, Mean (total dose ≧1041 mg): 21.8 min | Time to Fully Recovered, Median (total dose ≧1041 mg): 20.5 min | Time to Ready for Discharge, Mean (total dose ≧1041 mg): 39.9 min | Time to Ready for Discharge, Median (total dose ≧1041 mg): 40.0 min | Incidence (%) of patients who required supplemental doses to maintain sedation (≧955): 8.7% | Number of patients who needed supplemental doses to allow the start of procedure (≧955): 1 | Number of patients who required supplemental doses to maintain sedation (≧955): 2 | Percent of patients who needed supplemental doses to allow the start of procedure (≧955): 4.3%
